This assay concerns the target human GPR120 (Homo sapiens, UniProt Q5NUL3). Nature of the assay: Human GPR120 β-Arrestin Recruitment Assay. Particulars: CHO-K1 cells co-expressing ProLink-tagged human GPR120 and β-Arrestin 2/β-gal fusion; PathHunter; 90 minutes at 37° C. The text has this:
This in vitro assay tests compounds' ability to activate intracellular signaling via β-Arrestin recruitment to heterologously expressed human GPR120. This functional cellular assay utilizes enzyme fragment complementation with β-galactosidase (β-gal) as a functional reporter (DiscoveRx PathHunter® β-Arrestin assay platform). The human GPR120 receptor (GenBank accession Number NM_181745) was fused in frame with the small enzyme fragment ProLink™ and co-expressed in CHO-K1 cells with a fusion protein of β-Arrestin 2 and the larger, N-terminal deletion mutant of β-gal. Activation by a GPR120 agonist stimulates binding of β-arrestin to the ProLink-tagged GPCR and forces complementation of the two enzyme fragments, resulting in the formation of an active β-gal enzyme. This interaction leads to an increase in enzyme activity that can be measured using chemiluminescent PathHunter® Detection Reagents.
One day prior to the assay, cells were seeded in a total volume of 20 μl of growth medium into white walled 384-well microplates and incubated at 37° C./5% CO2 overnight. […]
Test compounds were dissolved in 100% DMSO to a concentration of 10 mM to provide stock solutions. […] Chemiluminescence was read using an EnVision plate reader (PerkinElmer), raw data were expressed as relative light units (RLU). […]

Protein sequences, listed by entry. Tags and fused reporters are not part of them. Residues count along the entry.
UniProt Q5NUL3, 1-377 isoform 1: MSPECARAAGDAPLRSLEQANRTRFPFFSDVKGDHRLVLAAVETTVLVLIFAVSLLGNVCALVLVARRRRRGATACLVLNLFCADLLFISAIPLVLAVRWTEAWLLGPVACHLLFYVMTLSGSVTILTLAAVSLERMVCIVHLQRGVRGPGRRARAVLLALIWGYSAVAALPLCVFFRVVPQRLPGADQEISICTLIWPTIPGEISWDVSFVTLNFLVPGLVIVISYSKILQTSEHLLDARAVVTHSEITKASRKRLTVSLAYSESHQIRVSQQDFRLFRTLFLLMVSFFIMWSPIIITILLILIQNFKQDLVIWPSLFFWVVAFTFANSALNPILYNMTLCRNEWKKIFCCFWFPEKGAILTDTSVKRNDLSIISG
UniProt P32121, whole entry partner: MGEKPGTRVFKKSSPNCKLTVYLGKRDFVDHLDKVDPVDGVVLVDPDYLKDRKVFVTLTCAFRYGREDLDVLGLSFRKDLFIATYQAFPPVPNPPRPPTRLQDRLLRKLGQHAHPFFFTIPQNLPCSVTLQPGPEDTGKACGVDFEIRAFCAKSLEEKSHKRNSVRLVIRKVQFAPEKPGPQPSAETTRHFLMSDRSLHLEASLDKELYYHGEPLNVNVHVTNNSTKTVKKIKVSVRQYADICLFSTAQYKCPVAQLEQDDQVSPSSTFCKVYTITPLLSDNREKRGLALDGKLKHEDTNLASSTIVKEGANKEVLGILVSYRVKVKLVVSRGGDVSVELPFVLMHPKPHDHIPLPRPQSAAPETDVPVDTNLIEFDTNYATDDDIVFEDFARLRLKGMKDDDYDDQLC

In the case of `O=S1(=O)c2ccc(Oc3cccnc3)cc2CN1Cc1ccccn1`, the “β-Arr pEC50” value is listed as less than 5.0.

The values above are taken from patent US10865201B2, “Bicyclic compounds useful as GPR120 modulators” (Valo Health, Inc., priority 2016, dated 2020).
